# Where two headings read alike, the source gives them in different places.
# System: male NSG mice bearing PSMA+ PC3 PIP and PSMA− PC3 flu xenografts
# [1] = 177Lu-L1 from biodistribution data of ref 27
# [2] = 192 h, unpublished data acquired during the study of ref 27
smiles,measurement,setting,value
"O=C(O)CCC(NC(=O)NC(CCCCN(Cc1ccc(Br)cc1)C(=O)CCCCNC(=O)CN1CCN(CC(=O)O)CCN(CC(=O)O)CCN(CC(=O)O)CC1)C(=O)O)C(=O)O (stereo not shown) [177Lu-L1, metal not drawn]",Tumor-to-blood AUC0-192h ratio,[1],~ 867
same,Tumor-to-kidney AUC0-192h ratio,[1],~ 8
same,Bladder uptake,24 h (A),0.02±0.02 % ID/g
same,Bone uptake,24 h (A),0.03±0.00 % ID/g
same,Fat uptake,24 h (A),0.03±0.03 % ID/g
same,Kidney uptake,24 h (A),0.32±0.16 % ID/g
same,Lacrimal uptake,24 h (A),0.08±0.05 % ID/g
same,Liver uptake,24 h (A),0.02±0.01 % ID/g
same,Lung uptake,24 h (A),0.02±0.02 % ID/g
same,PC3 flu tumor uptake,24 h (A),0.01±0.01 % ID/g
same,PSMA+ PC3 PIP tumor uptake,24 h (A),12.86 ± 0.98 % ID/g
same,Salivary gland uptake,24 h (A),0.01±0.01 % ID/g
same,Small intestine uptake,24 h (A),0.01±0.00 % ID/g
same,Spleen uptake,24 h (A),0.03±0.02 % ID/g
same,Stomach uptake,24 h (A),0.01±0.00 % ID/g
same,Blood uptake,"24 h (A), same experiment as 177Lu-Alb-L2 and 177Lu-Alb-L5",0.01 ±0.01 % ID/g
same,Tumor-to-kidney ratio,"24 h, biodistribution data from ref 27",> 4
same,Kidney uptake,[2],0.01 ± 0.00 %ID/g
same,PSMA+ PC3 PIP tumor uptake,[2],4.21 ± 1.45 %ID/g
same,Tumor-to-blood ratio,"all time points, biodistribution data from ref 27",> 300
CC(C)Cc1ccc([C@H](C)C(=O)NCCCC[C@H](NC(=O)CN2CCN(CC(=O)O)CCN(CC(=O)O)CCN(CC(=O)O)CC2)C(=O)N[C@@H](CCCCNC(=O)CCCCCCC(=O)N(CCCC[C@H](NC(=O)N[C@@H](CCC(=O)O)C(=O)O)C(=O)O)Cc2ccc(Br)cc2)C(=O)O)cc1 [Alb-L4],"Tumor AUC, fold higher",compared to 177Lu-Alb-L2 and 177Lu-Alb-L3,~ 4 fold
same,"Tumor AUC, fold higher",than 177Lu-Alb-L6 and 177Lu-L1,~ 6 fold
